Data as given in ChEMBL document CHEMBL3400069, “The amide linker in nonpeptide neurotensin receptor ligands plays a key role in calcium signaling at the neurotensin receptor type 2” (Bioorg Med Chem Lett, 2015).
The source made the active and inactive calls. The rule behind the calls is not given here.

Amino acid sequences for entries named in this document (tags omitted).
UniProt P20789, whole entry: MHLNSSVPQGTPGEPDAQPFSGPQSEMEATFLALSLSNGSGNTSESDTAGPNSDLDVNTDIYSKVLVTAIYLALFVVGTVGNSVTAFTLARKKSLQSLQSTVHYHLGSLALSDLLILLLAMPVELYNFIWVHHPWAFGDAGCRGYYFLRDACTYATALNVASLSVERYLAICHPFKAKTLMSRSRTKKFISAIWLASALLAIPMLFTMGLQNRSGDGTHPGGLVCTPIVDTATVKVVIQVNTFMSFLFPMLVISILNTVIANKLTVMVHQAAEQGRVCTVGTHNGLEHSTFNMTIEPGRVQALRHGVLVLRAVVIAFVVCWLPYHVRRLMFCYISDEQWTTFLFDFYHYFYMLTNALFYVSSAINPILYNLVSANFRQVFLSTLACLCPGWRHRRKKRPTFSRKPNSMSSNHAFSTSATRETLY

Legend:
[1] = target: Neurotensin receptor type 1 (Rattus norvegicus) (UniProt P20789); test: Antagonist activity at rat NTS1 overexpressed in CHO-k1 cells assessed as blockade of neurotensin-mediated calcium mobilization after 15 mins by FLIPR assay; type: functional, cell-based
[2] = target: T1, Neurotensin receptor type 2 (Rattus norvegicus) (UniProt Q63384); conditions: CHO-K1
T1 sequence (whole entry): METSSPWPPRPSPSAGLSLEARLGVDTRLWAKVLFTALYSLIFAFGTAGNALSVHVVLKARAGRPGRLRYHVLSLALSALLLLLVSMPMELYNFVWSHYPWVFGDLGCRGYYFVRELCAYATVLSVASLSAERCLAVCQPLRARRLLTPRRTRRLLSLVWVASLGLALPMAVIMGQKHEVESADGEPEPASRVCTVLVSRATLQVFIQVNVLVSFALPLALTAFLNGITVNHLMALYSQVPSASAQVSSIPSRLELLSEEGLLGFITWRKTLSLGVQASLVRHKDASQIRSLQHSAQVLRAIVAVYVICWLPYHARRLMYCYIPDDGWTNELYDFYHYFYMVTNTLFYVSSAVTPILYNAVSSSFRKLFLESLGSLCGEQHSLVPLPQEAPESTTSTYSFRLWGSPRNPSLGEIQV

| Ke [1] | Ke [2] | Compound |
| --- | --- | --- |
| 4.81 µM | 181 nM | COc1cccc(OC)c1-c1cc(NC(=O)C2(C(=O)O)CCCCC2)nn1-c1cccc2ccccc12 |
| inactive | inactive | COc1cccc(OC)c1-c1cc(CN[C@H](C(=O)O)C2CCCCC2)nn1-c1ccnc2cc(Cl)ccc12 |
| 4.39 µM | 3050 nM | COc1cccc(OC)c1-c1cc(NC(=O)C2(C(=O)O)CCCCC2)nn1-c1ccnc2cc(Cl)ccc12 |
